How the values were obtained:
Format in all cases: binding
[1] = tested on: Mouse polyclonal sera (AM1-DVS-KLH immunogens); test: Antigen panel (direct) ELISA, mouse polyclonal sera; conditions: for Percent reactivity: OD to test antigen / OD to CSA-DVS-HSA × 100; for OD: coated test antigen
Procedure: (§1) 1. Use Falcon Pro-bind immunoplate.
(§2) 2. Dilute coating antigen (Ag) to 1.0 μg/mL in carbonate-bicarbonate buffer. Use glass tubes.
(§3) 3. Add 100 μL to each well of plate. Store overnight at 4° C.
(§4) 4. Shake out wells and wash 3× with 200 μL PBS/0.05% TWEEN™ (polyoxyethylene-sorbitol) (v/v) per well.
(§5) 5. Add blocking buffer, 200 μL per well (PBS/2% BSA (w/v)). Incubate for 60 min at 37° C.
(§6) 7. Add 100 μL per well of test antibody appropriately diluted in PBS/0.1% Tween (v/v). Incubate 60 min at 37° C.
(§7) 9. Dilute alkaline phosphatase conjugated anti-mouse IgG (Pierce cat #31322) in PBS/0.1% TWEEN™ (polyoxyethylene-sorbitol) (v/v) to 1:2000 concentration. Add 100 μL per well and incubate at 37° C. for 60 min.
(§8) 10. Wash 3× as in step 4.
(§9) 11. Prepare enzyme substrate using Sigma #104 alkaline phosphatase substrate tablets (1 mg/mL in 10% diethanolamine (v/v) substrate buffer). Add 100 μL per well and incubate in the dark at room temperature. Absorbance can be read at 405 nm at approximately 15-min intervals.
Individual mouse sera collected 10 days post-secondary and tertiary immunizations were assayed for antibody titre by direct ELISA. Mice having high anti-CSA titres were assayed for specificity by antigen panel reactivity.

[2] = tested on: Mouse polyclonal sera (AM19-1-DVS (2) - KLH immunogen); test: Inhibition ELISA, AM19-1-DVS (2) HSA coated plate, mouse polyclonal sera
Procedure: (§10) Inhibition ELISA Protocol:
(§11) 1. Use Falcon Pro-bind immunoplates.
(§12) 2. Dilute coating antigen to 1 μg/mL in carbonate-bicarbonate buffer. Add 100 μL per well and incubate overnight at 4° C.
(§13) 3. On the same day prepare inhibiting antigen tubes. Aliquot antibodies into glass test tubes. Prepare appropriate antigen concentration in ethanol and add to aliquoted antibody at 10 μL ethanol solution/250 μL antibody. Vortex tubes and incubate overnight at 4° C.
as §4
(§14) 5. Add 200 μL blocking buffer per well (PBS/2% BSA (w/v)). Incubate 60 min at room temperature.
(§15) 7. Transfer contents of inhibition tubes to antigen-coated plate, 100 μL per well. Incubate 60 min at 37° C.
(§16) 9. […] Add 100 μL per well and incubate at 37° C. for 60 min.
(§17) 11. […] Add 100 μL per well and incubate in the dark at room temperature. Absorbance can be read at 405 nm at approximately 15-min intervals.

[3] = tested on: Mouse polyclonal sera (AM19-9-DVS-KLH immunogens); test: Antigen panel (direct) ELISA, mouse polyclonal sera; conditions: for Percent reactivity: OD to test antigen / OD to AM19-9-DVS-HSA × 100; for OD: coated test antigen
Procedure: as §1, §2, §3, §4, §5, §6, §7, §8, §9
Sera from mice immunized with the AM19-9-DVS immunogen showing high reactivity to the AM19-9-DVS hapten were further characterized by antigen panel ELISA (Table 9).

[4] = tested on: Mouse polyclonal sera (AM19-9-DVS-KLH immunogen); test: Inhibition ELISA, AM19-9-DVS-HSA coated plates, mouse polyclonal sera
Procedure: as §10, §11, §12, §13, §4, §14, §15, §16, §17

[5] = tested on: Mouse polyclonal sera (AM9-1-DVS-KLH immunogen); test: Antigen panel (direct) ELISA, mouse polyclonal sera; conditions: for Percent reactivity: OD to test antigen / OD to AM9-1-DVS-HSA × 100; for OD: coated test antigen
Procedure: as §1, §2, §3, §4, §5, §6, §7, §8, §9
The reduction in antibody binding to the AM19-9 hapten is presumed to be due to masking of the epitope recognition site, (i.e., blocking the modified a.a. #9 residue with the DVS linker arm would thereby block Ab/Ag interaction). […] Screening for specific anti-AM9 MoAbs can also be achieved.

[6] = tested on: Mouse polyclonal sera (AM9-9-DVS-KLH immunogen); test: as above; conditions: for Percent reactivity: OD to test antigen/ OD to AM19-9-DVS-HSA × 100; for OD: coated test antigen
Procedure: as §1, §2, §3, §4, §5, §6, §7, §8, §9
Sera from mice immunized with the AM9-9-DVS immunogen which reacted strongly to the AM19-9-DVS hapten were further characterized by antigen panel ELISA (Table 13). Sera from these mice recognize epitopes on the AM19-9-DVS-HSA molecule. […] The reduction in antibody binding to panel antigens coupled through the amino acid #1 residue is presumed to be due to masking of the Ab epitope recognition site. As the AM9-9-DVS immunogens would present the amino acid #1 face of the molecule for immune recognition, blocking the amino acid #1 residue with the DVS linker arm would thereby block Ab/Ag interaction.

[7] = tested on: Mouse polyclonal sera (AM9-9-DVS-KLH immunogen); test: Inhibition ELISA, AM19-9-DVS-HSA coated plate, mouse polyclonal sera
Procedure: as §10, §11, §12, §13, §4, §14, §15, §16, §17

[8] = tested on: Mouse monoclonal antibody CSA-1H6; test: Antigen panel (direct) ELISA, MoAb tissue culture supernatant
Procedure: as §1, §2, §3, §4, §5, §6, §7, §8, §9
(§18) Spleen cells from mice immunized with the CSA-DVS conjugate have been used to prepare monoclonal antibody secreting hybridoma clones. IgM and IgG anti-CSA secreting clones have been isolated. Table 15 illustrates the reactivity of tissue culture supernatants (TCS) from two of these anti-CSA MoAbs (CSA-1H6 and CSA-2G9).

[9] = tested on: Mouse monoclonal antibody CSA-2G9; test: as above
Procedure: as §1, §2, §3, §4, §5, §6, §7, §8, §9, §18

[10] = tested on: Mouse monoclonal antibody AM19-1-7E12-1; test: as above
Procedure: as §1, §2, §3, §4, §5, §6, §7, §8, §9
(§19) Spleen cells from mice immunized with the AM19-1-DVS (1) conjugate have been used to prepare MoAb secreting hybridoma cells. Anti-AM19-1-DVS (1) ELISA reactive IgM and IgG MoAb isotypes have been isolated. Table 19 illustrates the reactivity of TCS from two of these anti-AM19-1-DVS MoAbs (AM19-1-7E12-1 and AM19-1-7E12-2).

[11] = tested on: Mouse monoclonal antibody AM19-1-7E12-2; test: as above
Procedure: as §1, §2, §3, §4, §5, §6, §7, §8, §9, §19

Substance: HSA: human serum albumin, protein carrier
- Percent reactivity ([1]; Mouse 1): 0%
- OD ([1]; Mouse 1): 0
- Percent reactivity ([1]; Mouse 2): 0%
- OD ([1]; Mouse 2): 0
- Percent Inhibition ([2]; Mouse 3): 0%
- Percent Inhibition ([2]; Mouse 4): 0%
- Percent reactivity ([3]; Mouse 5): 0%
- OD ([3]; Mouse 5): 0.012
- Percent reactivity ([3]; Mouse 6): 0%
- OD ([3]; Mouse 6): 0.007
- Percent Inhibition ([4]; Mouse 5): 0%
- Percent Inhibition ([4]; Mouse 6): 0%
- Percent reactivity ([5]; Mouse 1): 0%
- OD ([5]; Mouse 1): 0
- Percent reactivity ([5]; Mouse 2): 0%
- OD ([5]; Mouse 2): 0
- Percent reactivity ([6]; Mouse 1): 0%
- OD ([6]; Mouse 1): 0.001
- Percent reactivity ([6]; Mouse 2): 9.7%
- OD ([6]; Mouse 2): 0.060
- Percent reactivity ([6]; Mouse 3): 0%
- OD ([6]; Mouse 3): 0
- Percent Inhibition ([7]; Mouse 1): 24.6%
- Percent Inhibition ([7]; Mouse 2): 26.8%
- Percent reactivity ([8]; CSA-1H6, OD to test antigen / OD to CSA-DVS-HSA × 100): 0%
- OD ([8]; CSA-1H6 TCS, coated test antigen): 0.006
- Percent reactivity ([9]; CSA-2G9, OD to test antigen / OD to CSA-DVS-HSA × 100): 0%
- OD ([9]; CSA-2G9 TCS, coated test antigen): 0
- Percent reactivity ([10]; AM19-1-7E12-1, OD to test antigen / OD to AM19-1-DVS (1)-HSA × 100): 0%
- OD ([10]; AM19-1-7E12-1 TCS, coated test antigen): 0.009
- Percent reactivity ([11]; AM19-1-7E12-2, OD to test antigen / OD to AM19-1-DVS (1)-HSA × 100): 0%
- OD ([11]; AM19-1-7E12-2 TCS, coated test antigen): 0

Source: patent US6713266B1 (Isodiagnostika Inc., priority 1998, dated 2004)
